The nature of data set [1]: Pharmacokinetic behavior in rats. As to conditions: SD rats; for F(%): intragastric administration 5 mg/kg vs intravenous 1 mg/kg. The method, then: Test Example 4 Study on the pharmacokinetic behavior of the compounds of the present invention in rats
Healthy SD rats (SPF grade, source: Beijing Vital River Laboratory Animal Technology Co., Ltd.), 3 animals, male, weighing 180-250 g, were intravenously injected with 1 mg/kg of the compound at a dosing volume of 2 mL/kg. The compound was formulated with 5% DMSO + 10% Solutol + 85% Saline (w/v), and the animals were not fasted prior to the test.
Healthy SD rats (SPF grade, source: Beijing Vital River Laboratory Animal Technology Co., Ltd.), 3 animals, male, weighing 180-250 g, were intragastrically administered with 5 mg/kg of the compound at a dosing volume of 10 mL/kg. The compound was formulated with 5% DMSO + 10% Solutol + 85% Saline (w/v), and the animals were not fasted prior to the test.
Blood samples (approx. 0.25 mL each) were collected via the vein at 5 min, 15 min, 30 min, 1 h, 2 h, 4 h, 6 h, 8 h, and 24 h after intravenous administration, and at 5 min, 15 min, 30 min, 1 h, 2 h, 4 h, 6 h, 8 h, and 24 h after intragastric administration, respectively, using sodium heparin as an anticoagulant. After collection, the blood samples were placed on ice, and the plasma was separated by centrifugation within 1 hour (centrifugation conditions: 6000 g, 3 minutes, 2-8 °C). The concentration of the compound in plasma was determined by liquid chromatography-tandem mass spectrometry. Plasma samples were stored in a -80 °C freezer before analysis. Pharmacokinetic parameters were calculated using Phoenix WinNonlin 8.2.0 based on plasma concentration data at different time points.

Data set [2] has as its system mouse selective nerve injury model. Put plainly: Analgesic effect in mouse selective nerve injury model (mechanical allodynia, von Frey filaments). As to conditions: 10 mg/kg p.o. single dose, 1, 2 and 4 hours after administration; larger AUC = better analgesic effect. The procedure: Test Example 5 Study on the analgesic effect of the compounds of the present invention on inhibiting pain in a mouse selective nerve injury model
A 5% DMSO + 10% Solutol + 85% Saline solution was used.
Experimental animals: C57BL/6 mice, weighing 18-22 g, male, purchased from Beijing Vital River Laboratory Animal Technology Co., Ltd.
• (1) The surgical procedure was performed under aseptic conditions. • (2) Surgical instruments (scissors, forceps, scalpels, surgical cotton, and sutures) were sterilized before surgery. • (3) The animals were anesthetized with Zoletil 50 (50 mg/kg) + xylazine hydrochloride injection (8 mg/kg) (intraperitoneal injection, 2.5 mL/kg). The toes of the animals were pinched to confirm complete anesthesia before surgery; an ophthalmic ointment was applied to the eyes of the animals to prevent corneal drying. • (4) The hair in the surgical area of the animals was shaved, and the skin was disinfected three times with iodophor and 70% ethanol; the surgery was started after the skin dried. • (5) The sciatic nerve and its three distal branches (the tibial, common peroneal, and sural nerves) were exposed. The tibial and common peroneal nerves were transected using ophthalmic scissors, and the sural nerve was spared. • (6) The wound was sutured. • (7) The surgical instruments were cleaned and sterilized using a hot bead sterilizer. • (8) After surgery, the animals were placed on a heating pad, and 1 mL of normal saline was injected subcutaneously to prevent dehydration. After the animals were fully awake (able to move freely), they were returned to their cages.
On days 4-6 post-modeling, the animals were placed in the testing environment for habituation for 30 minutes/day for 3 consecutive days. On day 7 post-modeling, the baseline measurement of mechanical allodynia was performed on the modeled animals.
The mice in each group were given a single dose of the corresponding drug via intraperitoneal or oral administration at 10 mL/kg according to the experimental protocol.
On day 8 post-modeling, the mechanical allodynia test was performed on the left hind paw of the mice at 1, 2, and 4 hours after administration.
The mice were placed individually in a Plexiglas box with a wire mesh floor to ensure that the paws of the mice could be tested. The mice were allowed to habituate for 15 minutes before the test.
After habituation, the test was performed using testing filaments on the central plantar surface of the left hind paw of the mice. The testing filaments included 8 testing strengths: 2.36 (0.02 g), 2.44 (0.04 g), 2.83 (0.07 g), 3.22 (0.16 g), 3.61 (0.4 g), 3.84 (0.6 g), 4.08 (1 g), and 4.17 (1.4 g). […] During testing, a rapid paw withdrawal by the animal was recorded as a pain response. Paw withdrawal when the test filament was removed from the animal's skin was also recorded as a pain response. If the animal moved or walked around, it was not recorded as a pain response, and the test should be repeated. […]
Mechanical allodynia is expressed as the paw withdrawal threshold (PWT) in the mouse behavioral test, which is calculated according to the following formula: • 50% response threshold (g)= (10^(Xf+kδ)/10,000 • Xf=value of the final testing filament used in the test • k = tabular value (Chaplan et al. 1994, page 62) • δ = mean difference
Data were analyzed using one-way or two-way analysis of variance (ANOVA) followed by Dunnett's multiple comparisons test in Prism software (GraphPad Software, Inc.). […]

The mark [3] stands for this setting: intragastric administration 5 mg/kg.

Take `CC(C)Cc1cc(F)c(-c2nn[nH]n2)c(N2CCN(Cc3cccnn3)[C@@H](C)C2)c1`: in data set [1] (setting [3]), the AUClast worked out at 5617 ng·h/mL; the Cmax – broadly, the highest concentration seen after dosing – is listed as 3303 ng/mL; the T1/2 turned out to be 1.3 h. The “F(%)” value in data set [1] came to 38.3%. In data set [1] (intravenous injection 1 mg/kg), the AUClast is 2936 ng·h/mL; the CL came out at 5.69 mL/min/kg; the Cmax was 5321 ng/mL; the Vss (in general, the apparent volume that relates the amount in the body to the concentration in plasma or blood) is 0.263 L/kg. Further, the “Mean AUC value (AUC0-4h of analgesic effect, paw withdrawal threshold)” value in data set [2] was determined as 1.826.

Take `CC(C)Cc1cc(NC2CC(F)(F)C2)c(-c2nn[nH]n2)c(N2CCN(Cc3cccnn3)[C@@H](C)C2)c1`: in data set [1] (setting [3]), the AUClast amounted to 19592 ng·h/mL, the Cmax worked out at 3729 ng/mL and the T1/2 came to 3.6 h. In addition, the “F(%)” value in data set [1] is given as 99%. Moreover, in data set [1] (intravenous injection 1 mg/kg), the AUClast came out at 3939 ng·h/mL, the CL came out at 4.46 mL/min/kg, the Cmax turned out to be 2700 ng/mL and the Vss stood at 0.5 L/kg. The “Mean AUC value (AUC0-4h of analgesic effect, paw withdrawal threshold)” value in data set [2] is listed as 3.027.

The values above are taken from patent EP4847503A1, “TETRAZOLE COMPOUND, PHARMACEUTICAL COMPOSITION THEREOF AND USE THEREOF” (dated 2026).
